Tested on: BY4741 strain
Assay: Growth effects of camphor treatment (doubling time)
Format: cell-based, Saccharomyces cerevisiae
Settings: none, 25 μM, 50 μM, 100 μM and 200 μM camphor
Source text: FIG. 5. Effects of camphor on the growth of BY4741 strain. Doubling time in the presence of various concentrations of camphor. The values are means and standard deviations calculated from eight experiments.
Based on this, we investigated how yeast cells were affected by camphor.
Yeast growth was monitored using an Eon Microplate Spectrophotometer with Gen5 software (BioTek, Winooski, Vt.), and 96 Well Clear Flat Bottom plates (Corning, N.Y.) were used to culture the cells. Fresh cells were suspended in the required medium, and then 200 μl of the samples were filled in each well. Typically, the initial value of A600 was 0.20 to 0.25, and the absorbance was measured at 600 nm every 10 minute. Doubling time was determined from cells that were in logarithmic phase.

## D-Camphor
  doubling time of BY4741, difference between conditions: no significant difference

— patent US10093938B2, “Regulated switch for gene expression” (The Johns Hopkins University, priority 2014, dated 2018)
